According to patent US20260232830A1, “ANTIGEN BINDING MOLECULE SPECIFICALLY BINDING TO EGFR AND MUC1, DRUG CONJUGATE THEREOF, AND MEDICAL USE THEREOF” (Jiangsu Hengrui Pharmaceuticals Co., Ltd., priority 2023, published 2026):

Tested on: CHOK1-cyno-MUC1-C cells
Assay: FACS-based determination of affinity of chimeric and humanized anti-MUC1-C antibodies
Type: binding
Parameters: key: “+” means that there was binding; “−” means that there was no binding
Method: HCC827-human-MUC1-C cells (in-house constructed overexpression stably transfected cell strain), CHOK1-cyno-MUC1-C cells (in-house constructed overexpression stably transfected cell strain), and T47D cells (human ductal breast cancer cells) were separately digested and added to a 96-well plate at 1E5 cells/well. After the plate was centrifuged at 300 g for 5 min, the supernatant was discarded, and the cells were washed once with a PBS buffer containing 2% FBS. The antibodies were 5-fold diluted from a starting concentration of 20 μg/mL using a PBS buffer containing 2% FBS to obtain a total of 8 concentration gradients. The antibody samples were added at 100 μL/well, and the cells were resuspended and incubated at 4° C. for 1 h. After the plate was centrifuged at 300 g for 5 min, the supernatant was discarded, and the cells were washed twice with a PBS buffer containing 2% FBS. […] After the plate was centrifuged at 300 g for 5 min, the supernatant was discarded, and the cells were washed twice with a PBS buffer containing 2% FBS. The cells were resuspended in 100 μL of a PBS buffer containing 2% FBS and analyzed using an instrument. […] The experimental process was the same as that in Test Example 1 “FACS-Based Determination of Affinity of Chimeric Antibodies”. In addition, CHOK1-human-MUC1-C cells (in-house constructed overexpression stably transfected cell strain) were used for evaluation.

Row | Molecule | Qualitative determination (Table 19-1, Test 1) | Qualitative determination (Table 19-1, Test 2) | Qualitative determination (Table 19-2, Test 1)
1 | ChiM4: chimeric antibody of M4: murine VH/VL (SEQ ID NO: 4/5) with human constant regions (SEQ ID NO: 69/70) (antibody) heavy: QVQLQQSGAELARPGASVKLSCKASGYSFTTYGVPWVKQRTGQGLEWIGDIYPRSGNTYYNEKFKGKATLTADKSSDTVFMELRSLSSEDSAVYFCAREDYDNYPYALDYWGQGTSVTVSSASTKGPSVFPLAPSSKSTSGGTAALGCLVKDYFPEPVTVSWNSGALTSGVHTFPAVLQSSGLYSLSSVVTVPSSSLGTQTYICNVNHKPSNTKVDKKV[human IgG1 Fc not spelt out] light: EIVLTQSPAIIAASPGEKVTITCSASSSVFNMNWYQQKPGSSPKIWIYDISKLASGVPGRFSGSGSGTSFSLTINSMEAEDVGTYYCQQRSFYPPTFGGGTKVEIKRTVAAPSVFIFPPSDEQLKSGTASVVCLLNNFYPREAKVQWKVDNALQSGNSQESVTEQDSKDSTYSLSSTLTLSKADYEKHKVYACEVTHQGLSSPVTKSFNRGEC | + | + | 
2 | M6-H5L1: humanized antibody of M6: huM6VH5 + huM6VL1 (antibody) heavy: EVQLVQSGAEVKKPGASVKVSCKASGYRFIPYWIEWVRERPGHGLEWMGEILPGTGRTNYNEKFKGRVTFTADTSTNTVYMELSSLTSEDTAVYYCARYGEDTSGGYYAVDYWGQGTTVTVSSASTKGPSVFPLAPSSKSTSGGTAALGCLVKDYFPEPVTVSWNSGALTSGVHTFPAVLQSSGLYSLSSVVTVPSSSLGTQTYICNVNHKPSNTKVDKKV[human IgG1 Fc not spelt out] light: DIVMTQSPDSLAVSLGERATINCRASESVNILGTNLIHWYQQKPGQPPKLLIYHASNLETGVPDRFSGSGSRTDFTLTISSLQAEDVAVYYCLQSRKIPWTFGGGTKVEIKRTVAAPSVFIFPPSDEQLKSGTASVVCLLNNFYPREAKVQWKVDNALQSGNSQESVTEQDSKDSTYSLSSTLTLSKADYEKHKVYACEVTHQGLSSPVTKSFNRGEC |  |  | +
3 | M6-H6L1: humanized antibody of M6: huM6VH6 + huM6VL1 (antibody) heavy: EVQLVQSGAEVKKPGASVKVSCKASGYRFIPYWIEWVRERPGHGLEWMGEILPGTGRTNYNEKFKGRVTFTADTSTNTVYMELSQLTSEDTAVYYCARYGEDTSGGYYAVDYWGQGTTVTVSSASTKGPSVFPLAPSSKSTSGGTAALGCLVKDYFPEPVTVSWNSGALTSGVHTFPAVLQSSGLYSLSSVVTVPSSSLGTQTYICNVNHKPSNTKVDKKV[human IgG1 Fc not spelt out] light: DIVMTQSPDSLAVSLGERATINCRASESVNILGTNLIHWYQQKPGQPPKLLIYHASNLETGVPDRFSGSGSRTDFTLTISSLQAEDVAVYYCLQSRKIPWTFGGGTKVEIKRTVAAPSVFIFPPSDEQLKSGTASVVCLLNNFYPREAKVQWKVDNALQSGNSQESVTEQDSKDSTYSLSSTLTLSKADYEKHKVYACEVTHQGLSSPVTKSFNRGEC |  |  | +
4 | M6-H7L1: humanized antibody of M6: huM6VH7 + huM6VL1 (antibody) heavy: EVQLVQSGAEVKKPGASVKVSCKASGYRFIPYWIEWVRERPGHGLEWMGEILPGTGRTNYNEKFKGRVTFTADTSTNTVYMELSSLTNEDTAVYYCARYGEDTSGGYYAVDYWGQGTTVTVSSASTKGPSVFPLAPSSKSTSGGTAALGCLVKDYFPEPVTVSWNSGALTSGVHTFPAVLQSSGLYSLSSVVTVPSSSLGTQTYICNVNHKPSNTKVDKKV[human IgG1 Fc not spelt out] light: DIVMTQSPDSLAVSLGERATINCRASESVNILGTNLIHWYQQKPGQPPKLLIYHASNLETGVPDRFSGSGSRTDFTLTISSLQAEDVAVYYCLQSRKIPWTFGGGTKVEIKRTVAAPSVFIFPPSDEQLKSGTASVVCLLNNFYPREAKVQWKVDNALQSGNSQESVTEQDSKDSTYSLSSTLTLSKADYEKHKVYACEVTHQGLSSPVTKSFNRGEC |  |  | +
